As usually defined, the IC50 is the concentration needed to halve the response being measured.

For 1 molecule, IC50 results are on record in patent publication US11564964B2, “Compositions and methods for the treatment of coronavirus infection” (priority 2021, dated 2023).

The series in a line: MTT cytotoxicity assay. Type of series: cell-based. The conditions noted are these: African green monkey, Vero E6 cells, read-out: cytotoxicity IC50 against Vero E6 cells. The protocol: Vero-E6 cells with the previously reported (MTT) method^34 were used to test the cytotoxic activity of the test compounds and extracts. In brief, the cells were plated in 96-well plates and incubated for 24 h at 37° C. in 5% CO2 (100 μL/well at a density of 3×10^5 cells/mL). The cells were then treated with different concentrations of extracts/the tested compounds in triplicates. The supernatant was discarded after another 24 h, and cell monolayers were washed three times with sterile 1× PBS. MTT solution was added to each well and then incubated at 37° C. for 4 h. The produced formazan crystals were dissolved with 200 μL of acidified isopropanol (0.04 M HCl in absolute isopropanol=0.073 mL HCL in 50 mL isopropanol). Thereafter, the absorbance of formazan solutions was measured at λmax 540 nm using a multi-well plate reader. The following equation was applied to calculate the percentage of cytotoxicity compared to the untreated cells:
[formula] The produced plot of % cytotoxicity versus sample concentrations was then used to calculate the IC50s. Viral Inhibitory Concentration 50 (IC50) Determination
(In general: Tetrazolium dyes change colour on reduction, which living cells bring about.)

For the molecule `C=C1C(=O)O[C@@H]2/C=C(\CO)CC/C=C(\C)C[C@H](OC(=O)C(=C)[C@@H](O)CO)[C@@H]12` [cnicin], the concentration for half-maximal inhibition (IC50) at 24 h was greater than 50 µg/mL.
